{"source": "patent US20200339509A1", "about": "“Non-Coordinating Anion Type Indolinium Activators in Aliphatic and Alicyclic Hydrocarbon Solvents” (ExxonMobil Chemical Patents Inc., priority 2019, published 2020)", "experiment": "Solubility study of the activators (saturated solution in aliphatic/alicyclic solvent)", "type": "physicochemical", "settings": "25° C., concentration of saturated solution; for Solubility limit in MeCy: MeCy (methylcyclohexane)", "experimental": "The solubility was determined using a saturated solution of the activator prepared by slowly adding the solvent to a pre-weighed amount of the activator. The final volume was determined as the minimum amount of solvent required to convert the heterogenous mixture into a homogeneous solution. The concentration of the saturated solution is presented in millimoles of activator per liter of solution (mM). Alternatively, a mixture of the activator was prepared by adding the solvent to an excess amount of activator. The resulting slurry was separated from the undissolved solids by decanting the mixture into a tared vial. Solvent was then added dropwise until the mixture became a homogeneous solution. The mass of the final solution was measured and then the solvent was evaporated to dryness to obtain the mass of the activator. The concentration of the saturated solution is presented in millimoles of activator per liter of solution (mM).\nIt was further discovered that adding or increasing the length of aliphatic branches to the indoline ring further increases the solubility of the activator."}
{"substance": "1-methylindolinium tetrakis(heptafluoronaphthalen-2-yl)borate [MIH-BF28]", "values": [{"measurement": "Solubility limit in MeCy", "result": "<100", "unit": "µM"}, {"measurement": "Solubility limit in i-hexane", "result": "<100", "unit": "µM"}]}
{"substance": "N,N-dimethyl anilinium tetrakis(heptafluoronaphthalen-2-yl)borate [DMAH-BF28, reference compound]", "values": [{"measurement": "Solubility limit in MeCy", "result": "<100", "unit": "µM"}, {"measurement": "Solubility limit in i-hexane", "result": "<100", "unit": "µM"}]}
